Experimental findings from BindingDB's records for doi:10.1074/jbc.272.51.31949 (Schering-Plough Research Institute, 1997) are described below.

What is called Ki is the dissociation constant of the complex between target and ligand, obtained from inhibition or displacement. Lower therefore signals tighter binding.

In this test the target is T1, Galanin receptor type 3 (Rattus norvegicus, UniProt O88626).
T1 sequence (O88626 whole entry): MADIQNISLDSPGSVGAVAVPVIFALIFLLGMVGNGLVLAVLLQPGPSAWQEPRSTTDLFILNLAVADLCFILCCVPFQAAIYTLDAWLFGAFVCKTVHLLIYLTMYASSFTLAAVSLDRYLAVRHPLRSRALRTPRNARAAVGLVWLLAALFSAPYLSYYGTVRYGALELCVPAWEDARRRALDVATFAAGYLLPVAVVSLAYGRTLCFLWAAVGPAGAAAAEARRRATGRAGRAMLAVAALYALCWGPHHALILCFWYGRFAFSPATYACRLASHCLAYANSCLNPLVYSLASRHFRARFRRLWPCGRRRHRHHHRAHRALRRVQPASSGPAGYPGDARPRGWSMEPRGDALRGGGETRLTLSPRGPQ

The molecule `CSCC[C@H](NC(=O)[C@H](CC(C)C)NC(=O)CNC(=O)[C@H](Cc1ccccc1)NC(=O)[C@H](Cc1ccccc1)NC(=O)[C@H](CCC(N)=O)NC(=O)[C@H](CCC(N)=O)NC(=O)[C@@H]1CCCN1C(=O)CNC(=O)[C@H](CC(C)C)NC(=O)[C@H](CC(C)C)NC(=O)[C@H](Cc1ccc(O)cc1)NC(=O)CNC(=O)[C@H](C)NC(=O)[C@H](CO)NC(=O)[C@H](CC(N)=O)NC(=O)[C@H](CC(C)C)NC(=O)[C@@H](NC(=O)[C@H](Cc1c[nH]c2ccccc12)NC(=O)CN)[C@@H](C)O)C(N)=O` registered a Ki of 85 nM.
